For the assay, the target named is MNK1 (Homo sapiens (Human), UniProt Q9BUB5). Briefly: MNK Biochemical Enzymatic Assay (ADP-Glo), MNK1. The settings on record: 10 nM recombinant MNK1, 100 μM substrate peptide, 300 μM ATP. Here is the method: Compounds are screened for MNK inhibition using the ADP-Glo kinase assay kit (Promega, catalogue No. V9101). All kinase reactions are performed in Reaction Buffer E (15 mM HEPES pH7.4, 20 mM NaCl, 1 mM EGTA, 10 mM MgCl2, 0.1 mg/ml BGG, and 0.02% Tween-20). Final MNK1 reactions contained 10 nM recombinant MNK1 (Life Technologies, PR9138A), 100 μM MNK substrate peptide Ac-[…]-NH2 (amino acid sequence shown SEQ ID NO: 1) (American Peptide Company), 300 μM ATP, and varying concentrations of the inhibitory compound of interest. Final MNK2 reactions contained 3 nM recombinant MNK2 (Life Technologies, PV5607), 50 μM MNK substrate peptide Ac-[…]-NH2 (amino acid sequence shown SEQ ID NO: 1) (American Peptide Company), 10 μM ATP, and varying concentrations of the inhibitory compound of interest. Final DMSO concentration in each reaction is 1%.
Kinase reactions are carried out in 96-well half-area white flat-bottom polystyrene plates in a final volume of 25 μl. MNK1/2 enzymes are pre-incubated with compound and peptide substrate for 5 minutes prior to the addition of ATP. After the addition of ATP, kinase reactions are incubated at room temperature for 40 minutes. […] The final luminescent signal used for kinase activity readout is produced by the addition of 45 μl of Kinase Detection Reagent (ADP-Glo kit, Promega) and incubating for 40 minutes.
On the technique in general: In ADP-Glo the light output rises with the ADP produced.

Sequences of proteins named here, by UniProt entry; tags and fusion partners are left off. A change or cut given only in a name is not applied to a line headed by its entry.
UniProt Q9BUB5: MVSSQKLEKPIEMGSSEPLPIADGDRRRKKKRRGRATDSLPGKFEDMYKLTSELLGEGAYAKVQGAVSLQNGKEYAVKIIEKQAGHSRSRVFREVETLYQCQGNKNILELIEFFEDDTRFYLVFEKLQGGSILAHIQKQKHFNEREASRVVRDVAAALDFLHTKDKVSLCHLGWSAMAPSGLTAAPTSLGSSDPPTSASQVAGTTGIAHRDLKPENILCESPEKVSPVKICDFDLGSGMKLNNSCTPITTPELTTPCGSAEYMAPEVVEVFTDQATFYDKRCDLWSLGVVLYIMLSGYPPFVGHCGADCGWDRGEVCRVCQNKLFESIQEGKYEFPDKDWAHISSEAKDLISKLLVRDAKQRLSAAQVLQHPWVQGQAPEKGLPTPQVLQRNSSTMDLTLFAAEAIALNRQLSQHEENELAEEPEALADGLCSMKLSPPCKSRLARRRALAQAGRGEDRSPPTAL

Molecules are shown by their SMILES. Structures can show the parent of a compound that is named as a salt.

A word on the IC50: it is the midpoint of a concentration-inhibition curve. In the case of `CC1(CN)NC(=O)c2ccc(Nc3ccncn3)cc21` (stereo not shown) [Cpd. No. 40, 3-(aminomethyl)-3-methyl-5-(pyrimidin-4-ylamino)isoindolin-1-one hydrochloride salt], the IC50 lay within 0.1 to 10 µM.

These data come from patent US10112955B2, “Isoindoline, azaisoindoline, dihydroindenone and dihydroazaindenone inhibitors of Mnk1 and Mnk2” (eFFECTOR THERAPEUTICS, INC., priority 2015, dated 2018).
